These results are taken from patent publication US20260382635A1, “NITROSYL-HEME FORMULATIONS FOR THE TREATMENT OF CARDIOVASCULAR CONDITIONS, HEMOLYSIS, AND THE STABILIZATION OF CELL-FREE HEME MOLECULES” (published 2026).

One test has as its system mice. Kind of test: Changes in murine mean arterial pressure (MAP). The conditions noted are these: nitrite infusion, normoxia. On the procedure:
A total of 70 male C57BL/6J mice (the Jackson Laboratory), aged between 12 to 14 weeks, were anesthetized by isoflurane (2.5%) for all experiments. Mice were in rooms maintaining 12/12 h light/dark cycles at 20-26 °C and 30-70% relative humidity. 10 of these total mice were used to establish the parameters of the model. Body temperature was maintained at 37 °C by a heating pad connected to heat pump (Androit). Catheters were implanted for carotid artery and jugular vein. Arterial blood pressure was continuously recorded through a blood pressure transducer (MLT699, ADInstrument) connected to an 8-channel Powerlab (ADInstrument). A tracheal tube was introduced and connected to a rodent ventilator (Model 849, MidiVent). Upon completion, in some animals, the fraction of inspiratory O2 was decreased from 21% to 10% to induce hypoxia. 75 μL of L-NAME was administered intravenously in a bolus at a dose of 10 mg/kg bodyweight. Ten minutes after L-NAME injection, animals were injected with 50 μL of NO-ferroheme, normal saline (NS), NO control, or freshly prepared GSNO^77 control for 4 times at 10-minute intervals. An NO-ferroheme in albumin stock was prepared via a concentrated version of the direct method as described above: 300 μM ferric heme was mixed anaerobically on a Schlenk line with 3 mM GSH and 600 μM NO in 500 μM albumin using air-tight Hamilton syringes. NO controls were generated similarly and comprised 300 μM dissolved NO with 3 mM GSH in anaerobic albumin solution. Likewise, GSNO stocks comprised 300 μM GSNO with 3 mM GSH in anaerobic albumin solution. Each of these stocks (NO-ferroheme, NO control, or GSNO control) were handled identically and diluted further in air with 500 μM albumin solution before injection by 1000-, 100-, and 10-fold. Mean arterial pressure (MAP) values were obtained by processed the recorded arterial pressure data with LabChart 7.3.8 (ADInstruments). To quantify changes ΔMAPmax was determined, defined as the average MAP before an injection (average of 3 to 5 time points) subtracted from the maximum change within 3 minutes after injection (average of 3-5 time points) for each species at a given concentration.
Using male C57BL/6J mice, catheters were inserted into the right carotid artery and jugular vein for monitoring MAP and for dose injections, respectively. Fresh NO-ferroheme stock solutions were generated in an anaerobic environment by mixing 300 μM hemin, 3 mM glutathione, 600 μM NO, and 500 μM bovine serum albumin in PBS. To establish that vasodilation was independent of endogenous eNOS-derived NO, mice were first treated with the NOS inhibitor L-NG-nitroarginine methyl ester (L-NAME). Four doses of NO-ferroheme were administered at estimated blood concentrations of 7.5 nM, 75 nM, 0.75 μM, and 7.5 μM. Doses were injected intravenously every ten minutes, long enough for the blood pressure to stabilize.
Injections of NO-ferroheme solution in hypoxic animals were characterized by a rapid, transient relaxation, as monitored by changes in MAP. The MAP almost completely returned to the L-NAME induced baseline after ten minutes when compared to normal saline controls (FIG. 5A). […] These changes were also significant versus normal saline at 75 nM under normoxic conditions (p=0.0002), 0.75 μM and 7.5 μM (p<0.0001, FIG. 5D, open squares vs circles).
This synthesis can involve multiple potential vasodilators including NO itself, GSNO, and NO-ferroheme. Therefore, it was desirable to define the dominant vasodilating species. The vasodilation potency of NO and GSNO was compared. Fresh stocks of NO were made (300 μM NO, 3 mM glutathione, and 500 μM albumin) and mice were injected in 10-minute intervals at the same dosing as the NO-ferroheme albumin injections (7.5 nM, 75 nM, 0.75 μM, and 7.5 μM dissolved NO) under 10% hypoxia and normoxia (FIGS. 5A and 5B, hashed traces). […]

The next test deals with albumin. The conditions noted are these: allosteric binding of small molecules; cited from earlier work.
Another test concerns platelets. The experiment in a line: Platelet activation in platelet-rich plasma (flow cytometry). The conditions noted are these: controls; 2.5 μM heme, 25 μM GSH, 7.5 μM albumin; 2 μM ADP (FIG. 12). On the procedure: Samples were prepared using heme (25 μM), NO (20 μM), albumin (75 μM) with and without GSH (250 μM) under normoxic or anoxic conditions. Fresh blood was drawn into sodium citrate tubes with the first tube being discarded and platelet rich plasma (PRP) collected after sedimentation of the red blood cells. Platelet activation was measured as described previously.^82 First, PRP was diluted 1:7 with oxygenated or deoxygenated PBS buffer, then albumin samples were mixed with this diluted PRP in 1:10 ratio. After 5 minutes of incubation at 37 °C, 2 μM ADP was added to all test samples except negative vehicle controls, followed by 10 additional minutes incubation. 20 μL of each sample was subsequently added to PAC-1 FITC (BD™ FITC Mouse Anti-Human PAC-1, 25 μg/mL (1 mL); catalog no. 340507; clone PAC-1 RUO (GMP))—which labels activated platelets—and CD61 (BD™ PerCP Mouse Anti-Human CD61, 3 g/mL (1 mL); catalog no. 340506; clone RUU-PL7F12 RUO (GMP))—which labels all platelets- and incubated at room temperature in the dark for 20 minutes and then fixed in 1% buffered formaldehyde. Platelets were sorted using a BD FACSCalibur Analyzer. Data were collected and analyzed using BD CellQuest Pro (v6.0). Gating strategy was based on side and forward scattering compared to red blood cells and then also for activated platelets. Platelets were labelled along the x-axis and activation on the y-axis. Activation was taken as the upper right quadrant divided by the sum of the two right quadrants (FIG. 14).
GSNO can inhibit platelets in vitro.^59,60 As GSNO is generated by the reaction, an alternate method to was employed to generate NO-ferroheme without GSNO by first reducing hemin with 1.6 fold excess sodium dithionite and then adding an equivalent of NO to the pre-formed ferrous heme at a final concentration of 2 μM (FIG. 4B). […] Finally, to establish that sGC is activated with NO-ferroheme in platelets, cGMP was detected with and without ODQ, a sGC inhibitor, and tadalafil, a phosphodiesterase (PDE) inhibitor (FIG. 4C). cGMP is increased with NO-ferroheme treatment vs controls (FIG. 4C, solid hexagons, p=0.0177), consistent with sGC activation and cGMP-dependent signaling.
On the technique in general: A flow cytometer gives signals particle by particle.

Test [1] can be described thus: NO-ferroheme formation kinetics in serum albumin (UV-Vis). On the procedure:
(§1) All individual spectra and pseudo-first-order kinetics were performed using a thermostatted (23/37 °C±0.2) Cary 50, Cary 100, or HP8453 UV-Visible spectrophotometer (Agilent Technologies) running either Cary WinUV Scan (v 5.23.1042, Agilent Technologies), Cary WinUV Scanning Kinetics (v3.00(183), Agilent Technologies), or UV-Visible ChemStation (vB.04.01 [61], Agilent Technologies) for reactions ferric heme reactions with NO and without glutathione in PBS and MeOH/PBS buffer (1 part PBS in 5 parts methanol) unless otherwise noted. For pseudo-first-order reactions with fast observed rates such as the ferric heme reaction with NO and reduced glutathione, a thermostatted SX-20 stopped-flow instrumented fitted with a direct mount photodiode array (Applied Photophysics, Ltd.) in an anaerobic chamber was used. Stopped-flow data were collected using Pro-Data SX (v2.5.1852.0, Applied Photophysics). Samples were prepared either in a glove box under nitrogen atmosphere or using a Schlenk line under argon atmosphere with oxygen-free buffers and solvents.
Stocks of hemin, glutathione, and NO were prepared as described above. An albumin stock (0.5-1 mM) was made in phosphate buffered saline (PBS) and the concentration verified by absorption spectroscopy using an extinction coefficient of 43.8 mM^−1 cm^−1 at 280 nm. Stock solutions were used to produce mixtures on a Schlenk line and transferred using Hamilton syringes with concentrations given in the results section. Solutions were made directly or indirectly and transferred with no differences between products of each preparation. The direct method involved adding ferric heme solution and glutathione directly to albumin in an argon- or nitrogen-filled, septum-sealed vial, followed by NO addition. Solutions were used after five minutes. The indirect method involved NO addition to heme and GSH in PBS before then adding albumin after five minutes. The NO-ferroheme was then incubated with albumin for thirty minutes.
As in the RBC ghost membrane system, GSH-catalyzed NO-ferroheme formation occurred in the presence of plasma serum albumin. […]

Test [2] is described as follows: Kinetics of reductive nitrosylation of ferric heme in MeOH:PBS buffer (UV-Vis/stopped-flow). On the procedure:
as §1
Hemin stock (5 mM) was prepared regularly in 20 mN anaerobic NaOH solution, sealed in a septum capped vial. The concentration of hemin was precisely determined by absorption spectroscopy using the extinction coefficient at 385 nm of 58.4 mM^−1 cm^−1.^78 Reduced glutathione stocks (25-100 mM) were made regularly in deaerated PBS and sealed in septum capped vials. Methanol was deaerated separated before mixing in a 5:1 ratio with deaerated PBS to make MeOH:PBS buffer for spectroscopy experiments. The precise concentration of NO from bubbling or from ProliNONOate was determined either by titrating with excess oxyhemoglobin and calculating the amount of methemoglobin produced by fitting absorption spectra to normalized basis spectra or using an ozone-based chemiluminescent analyzer. Stock concentrations of ProliNONOate were also verified through absorption spectroscopy, using the extinction coefficient at 248 nm of 8.4 mM^−1 cm^−1.^79 A sample stopped-flow experiment was performed as follows: 25 μM hemin and 250 µM hemin were loaded into one syringe, and a range of NO concentrations between 125 μM and 2.5 mM were loaded in the other syringe and the syringe contents were mixed 1:1 in the stoppled flow. For radical trapping experiments, the above reaction conditions were replicated plus the addition of 50 mM DMPO in deaerated MeOH:PBS solution.
A 5:1 mixture of methanol to phosphate buffered saline (PBS, pH 7.4)—herein referred to as the MeOH:PBS buffer—was used to solubilize free heme at concentrations amenable to UV-visible spectroscopic characterization. […]
Addition of 125 μM GSH with 12.5 μM ferric heme and only 125 μM NO results in rapid formation a product with the same spectroscopic signature, indicating NO-ferroheme formation (FIG. 1B, note markedly different time scale from FIG. 1A). […] The GSH-facilitated product lacks the characteristic dithionite absorbance at 315 nm.
Varying the concentrations of NO or GSH under pseudo first-order conditions allows for determination of the reaction dependence on GSH and NO, yielding calculated second-order rate constants of 7000 M^−1s^−1 and 2300 M^−1s^−1, respectively (FIG. 1F).

[3] abbreviates: role: substrate, GSH varied, ferric heme, NO, albumin, 22 °C.

For sodium nitrite, in the test with mice, the “vasodilation, words” value is recorded as “low-amplitude, sustained vasodilation”.

Regarding `CC(C)Cc1ccc(C(C)C(=O)O)cc1` (stereo not shown), in the test on albumin, the “effect on rate of NO dissociation from heme-albumin” value is “accelerated”.

Turning to `C=CC1=C(C)c2cc3[nH]c(cc4nc(cc5[nH]c(cc1n2)c(C)c5CCC(=O)O)C(CCC(=O)O)=C4C)c(C)c3C=C.[Fe+3]`, in the test on platelets, the “platelet inhibition, effect in words” value is “No platelet inhibition was observed”.

Consider `N[C@@H](CCC(=O)N[C@@H](CS)C(=O)NCC(=O)O)C(=O)O`, for which, in test [1] (500 μM serum albumin), the “effect on rate of NO-ferroheme formation in albumin” value is listed as “accelerates the rate of NO-ferroheme formation in a dose-dependent manner”. For the same compound, in test [1] (setting [3]), the “observed 2nd-order rate constant, fast phase” value was 700 M⁻¹ s⁻¹ and the “observed 2nd-order rate constant, second phase” value was 20 M⁻¹ s⁻¹. Also, the “platelet inhibition, effect in words” value in the test on platelets is reported as “No platelet inhibition was observed”. Also, the “spectral changes of ferric heme” value in test [2] (300 μM GSH to 30 μM ferric heme, no NO) is “no observable spectral changes”. Also, the “observed 2nd-order rate constant (GSH dependence)” value in test [2] (role: substrate, GSH varied, [NO] 250 μM, ferric heme, MeOH:PBS, 23 °C, anaerobic) was determined as 7000 M⁻¹ s⁻¹.

As to `CC(=O)CC(c1ccccc1)c1c(O)c2ccccc2oc1=O` (stereo not shown), the “effect on rate of NO dissociation from heme-albumin” value in the test with albumin is listed as “accelerated”.
